The values that follow are results of earlier work, collected in publication PMC8198792, “Prediction of Anticancer Peptides with High Efficacy and Low Toxicity by Hybrid Model Based on 3D Structure of Peptides” (International Journal of Molecular Sciences, 2021).

The series relates to cancer cell lines. On the set-up: method as in 6 sources, ref CancerPPD [45] and SATPdb ||| ref CancerPPD/SATPdb ||| ref CancerPPD, SATPdb, Swissprot (PDB) ||| ref CancerPPD/SATPdb/Swissprot(PDB) ||| ref CancerPPD / SATPdb ||| ... As to conditions: cited from earlier work.
The mark [1] stands for this setting: ACPs dataset D1, 1 = ACP (positive), 0 = non-ACP (negative), label taken from databases, ref CancerPPD [45] and SATPdb.
[2] abbreviates: ACPs dataset D3 (sheet "D3"), label 1 = ACP, 0 = non-ACP, ref CancerPPD/SATPdb.

Where two headings read alike, the source gives them in different places.

Regarding VNWKKILGKIIKVVK [compound 3501], the Activity under setting [1] is reported as 1.

Regarding VOLfPVOLfP [satpdb14186], the Activity under setting [2] is 0.

Regarding “VTCFCRRRGCASRERHIGYCRFGNTIYRLCCRR [satpdb10365]”, the Activity under setting [1] is on record as 0.

As for WKSDVRRWRSRY [satpdb13059], the Activity (ACPs dataset D1, label 1 = ACP, 0 = non-ACP (non-anticancer AMPs from SATPdb), ref CancerPPD/SATPdb) was 0.

For the substance “WKSESVCTPGCVTGVLQTCFLQTITCNCHISK [satpdb10992]”, the Activity under setting [1] is 0.

WTRCSSSCGRGVSVRSR [satpdb17430]: the Activity under setting [1] is 1.

For the substance YCNINEVCHYARRNDKSYWL [satpdb18127], the Activity under setting [1] is on record as 1.

YLKNYRIATFKNWPF [satpdb18163]: the Activity under setting [1] was 1.

For the substance YPYDVPDYASL [satpdb18483], under setting [1], the Activity is given as 1.

Regarding “YVSCLFRGARCRVYSGRSCCFGYYCRRDFPGSIFGTCSRRNF [2DCV NMR - A 1-42]”, where the note is “ACPs dataset D2 (supplement ACPs(seguence).xlsx, sheet D2), dataset label 1/0 (ACP / non-ACP), entries identified by Swissprot(PDB ID), ref CancerPPD/SATPdb/Swissprot(PDB)”, the Activity is 0.

For the substance fPVOLOfPOVOL [satpdb13884], the Activity under setting [2] is 0.

Take “rrrrrrrrGNLWAAQRYGRELRRMSDEFVDSFKK [compound 2913]”: for the setting “ACPs dataset D3 (supplement sheet "D3"), 1 = ACP, 0 = non-ACP, ref CancerPPD [45] and SATPdb”, the Activity is 1.
